The term EC50 denotes the concentration giving half of the maximal effect. High values mean weaker potency, low ones greater potency. As usually defined, the Emax is the maximal effect, on the per cent scale that the assay sets.

Chains of the proteins cited; added tags and fusions are not shown.
UniProt P14842, whole entry: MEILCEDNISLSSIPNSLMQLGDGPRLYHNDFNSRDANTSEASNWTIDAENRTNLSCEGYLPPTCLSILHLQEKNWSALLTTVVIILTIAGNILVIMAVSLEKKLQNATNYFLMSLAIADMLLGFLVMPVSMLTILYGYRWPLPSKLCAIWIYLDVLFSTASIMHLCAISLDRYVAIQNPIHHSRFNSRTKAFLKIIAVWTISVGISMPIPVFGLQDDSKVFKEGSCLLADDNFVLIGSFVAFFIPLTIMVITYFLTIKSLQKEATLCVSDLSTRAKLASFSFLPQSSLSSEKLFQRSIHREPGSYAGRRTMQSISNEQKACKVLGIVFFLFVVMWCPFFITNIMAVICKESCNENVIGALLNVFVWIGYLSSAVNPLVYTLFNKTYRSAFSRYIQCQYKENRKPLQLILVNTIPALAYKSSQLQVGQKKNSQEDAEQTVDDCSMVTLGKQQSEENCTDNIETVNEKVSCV

For the assay, the target named is T1, 5-HT2A (Rattus norvegicus, UniProt P14842).
T1 construct: [^3H]myo-inositol-labeled A7r5 rat vascular smooth muscle cells; endogenous in cells; host or cells: A7r5 rat vascular smooth muscle cells
The assay is described as follows: 5-HT2 Functional Assay: [Ca2+]i Mobilization (FLIPR) in A7r5 cells. In kind it is cell-based. Conditions: for Emax: A7r5 cells, FLIPR, percentage of maximum 5-HT-induced response, read-out: 5-HT2A % Emax (Ca+2 Assay). As for the experimental part:
5-HT2 Functional Assay: [Ca^2+]i Mobilization
The receptor-mediated mobilization on intracellular calcium ([Ca^2+]i) was studied using the Fluorescence Imaging Plate Reader (FLIPR) instrument. Rat vascular smooth muscle cells, A7r5, were grown in a normal media of DMEM/10% FBS and 10 μg/mL gentamycin. Confluent cell monolayers were trypsinized, pelleted, and re-suspended in normal media. Cells were seeded in a 50 μL volume at a density of 20,000 cells/well in a black wall, 96-well tissue culture plate and grown for 2 days.
On the day of the experiment, one vial of FLIPR Calcium Assay Kit dye was re-suspended in 50 mL of a FLIPR buffer consisting of Hank's Balanced Salt Solution (HBSS), 20 mM HEPES, and 2.5 mM probenecid, pH 7.4. Cells were loaded with the calcium-sensitive dye by addition of an equal volume (50 μL) to each well of the 96-well plate and incubated with dye for 1 h at 23° C.
Compounds were diluted 1:50 in 20% DMSO/20% Ethanol. For “hit” screening, compounds were further diluted 1:10 in FLIPR buffer and tested at a final concentration of 10 μM.
The compound plate and cell plate were placed in the FLIPR instrument. At the beginning of an experimental run, a signal test was performed to check the basal fluorescence signal from the dye-loaded cells and the uniformity of the signal across the plate. The basal fluorescence was adjusted between 8000-12000 counts by modifying the exposure time, the camera F-stop, or the laser power. Instrument settings for a typical assay were the following: laser power 0.3-0.6 W, camera F-stop F/2, and exposure time 0.4 sec. An aliquot (25 μL) of the test compound was added to the existing 100 μL dye-loaded cells at a dispensing speed of 50 μL/sec. Fluorescence data were collected in real-time at 1.0 sec intervals for the first 60 secs and at 6.0 sec intervals for an additional 120 secs. Responses were measured as peak fluorescence intensity minus basal and where appropriate were expressed as a percentage of a maximum 5-HT-induced response.

As to `COc1cc(C[C@@H](C)N)c(OC)cc1Br` [Compound 4, DOB, reference compound], the EC50 is 17.5 nM and the Emax stood at 51%.

Consider `CC(N)C(O)c1ccccc1` (stereo not shown) [Compound 2, reference compound], for which the Emax came out at 1.2%. On to `C[C@H](N)C(O)c1ccccc1` (stereo partly shown) [Compound 3, reference compound], for which the maximal effect (Emax) was 1.9%.

The record behind these values is patent US20060106106A1, “Beta-hydroxyphenylalkylamines and their use for treating glaucoma” (priority 2002, published 2006).
